Drawing on patent US12509496B2 (Shanghai Minwei Biotechnology Co., LTD, priority 2020, dated 2025), this text covers EC50 for 1 substance.

Amino acid sequences for entries named in this document (tags omitted). Residues count along the entry.
UniProt P43220, 24-463: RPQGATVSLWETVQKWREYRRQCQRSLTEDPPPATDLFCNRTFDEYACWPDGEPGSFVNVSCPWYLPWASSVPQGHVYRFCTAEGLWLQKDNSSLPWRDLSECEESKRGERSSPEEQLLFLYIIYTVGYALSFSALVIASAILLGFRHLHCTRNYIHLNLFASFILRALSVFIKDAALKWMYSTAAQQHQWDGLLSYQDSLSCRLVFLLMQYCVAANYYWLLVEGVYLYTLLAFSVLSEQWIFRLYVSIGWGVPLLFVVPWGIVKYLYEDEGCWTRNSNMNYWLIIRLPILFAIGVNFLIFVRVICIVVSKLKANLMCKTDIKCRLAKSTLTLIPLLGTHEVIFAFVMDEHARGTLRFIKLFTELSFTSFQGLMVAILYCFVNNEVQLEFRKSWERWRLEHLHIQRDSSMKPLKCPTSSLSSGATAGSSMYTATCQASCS

The assay addresses T1, human GLP-1R (Homo sapiens, UniProt P43220).
T1 construct: expressed in transfected cells; host or cells: CHO-K1 cells (with CRE-luciferase reporter)
Nature of the assay: In vitro GLP-1 activity of fusion proteins, CHO-K1 CRE-luciferase. In kind it is cell-based. Conditions: read-out: EC50 human GLP-1R, CHO-K1 cells, 5 hours incubation.

A word on the EC50: it is the midpoint of the concentration-response curve. For the substance Glucagon, the concentration giving a half-maximal response (EC50) was 15 nM.
